scFv variants of Ab-14 (heavy chain) against a SARS-CoV-2 spike peptide

Reference: Engelhart et al. 2022, doi:10.1038/s41597-022-01779-4. File: FLAb, binding data.

The target is the same throughout: PDVDLGDISGINAS, from the HR2 region of SARS-CoV-2 spike.

Each scFv is VH, three GGGGS repeats, VL, as in the parent Ab-14, and differs from it in the CDRs of the heavy chain only.
VH: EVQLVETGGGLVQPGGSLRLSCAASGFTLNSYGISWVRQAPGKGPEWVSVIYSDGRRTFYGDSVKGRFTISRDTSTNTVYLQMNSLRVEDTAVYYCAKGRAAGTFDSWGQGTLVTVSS
VL: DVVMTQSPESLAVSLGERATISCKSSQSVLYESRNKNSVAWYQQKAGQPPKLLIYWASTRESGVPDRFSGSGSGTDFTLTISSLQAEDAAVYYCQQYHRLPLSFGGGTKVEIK

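Phage display of a naive human antibody library on the peptide gave the parent. The library (AAYL49) carries one to three amino acid substitutions per variant, with no insertions or deletions. The scFvs were displayed on barcoded MATa yeast, the peptide on MATalpha yeast. Pairs that bind mate more often; barcode pairs of the diploids are counted by sequencing. Read counts were normalised to the haploid input and turned into Kd by a linear fit to BCL2-family pairs of known affinity, for each replicate. Each pool was mated in three replicate cultures.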

Each variant is given by its three heavy chain CDRs, as the data file delimits them; those of the parent are GFTLNSYGIS, VIYSDGRRTFYGDSVK, GRAAGTFDS. All variants listed here change Y52 of the VH, counted from its first residue. Values are apparent Kd, the geometric mean of the replicates that gave a signal; lower means stronger binding. A pair that was not seen in any replicate is written "no signal"; this usually means weak binding, but a binder can also be missed. Order: sorted from the lowest average up, undetected variants last. Nonspecific signal, from three strains lacking the peptide, appeared in 15% of pairings of library AAYL49, centred on 11 µM (5% of these signals below 680 nM); values are not corrected for it.

With GFTLNNYGIS, VIFSDGRRTFYGDSVK, GQAAGTFDS the result was 9.9 nM (3 of 3 replicates).
With GSTLNSYGSS, VITSDGRRTFYGDSVK, GRAAGTFDS the result was 940 nM (1 of 3 replicates).
With GFTLNSYKIS, VIPSDGRRTFYGDSVK, GRHAGTFDS the result was 1.9 µM (1 of 3 replicates).
With GFTLYSYGIS, VITSDGCRTFYGDSVK, GRAAGTFDS the result was 3.0 µM (1 of 3 replicates).
With GFTLNSYGIS, PIMSDGRRTFYGDSVK, GRAHGTFDS the result was 7.1 µM (2 of 3 replicates).
With GFKLNSYGIS, VIWSDGRRTFYIDSVK, GRAAGTFDS the result was 7.9 µM (1 of 3 replicates).
With GFTLNSYGIS, VIQSDGRRTFYGVSVK, KRAAGTFDS the result was 8.8 µM (1 of 3 replicates).
With GFTLNSYGIS, VIMSDGRRTNYGDSVK, GRAAGTFDE the result was 9.2 µM (2 of 3 replicates).
With GFTLNRYGIS, VIFSDGRRTFTGDSVK, GRAAGTFDS the result was 11 µM (2 of 3 replicates).
With GFTLNSYGIS, DIWSDGRRTFYRDSVK, GRAAGTFDS the result was 12 µM (1 of 3 replicates).
With GFTLNSYGIK, VISSDGRRTFYGDSIK, GRAAGTFDS the result was 12 µM (2 of 3 replicates).
With GFTLNSYGTS, GIFSDGRRTFYGDSVK, GRAAGTFDS the result was 28 µM (1 of 3 replicates).
With GWTLNSQGIS, VIRSDGRRTFYGDSVK, GRAAGTFDS the result was 28 µM (1 of 3 replicates).
With GFTLNSYGIS, VIVSGGRRTFYGDSVK, GRAAQTFDS the result was 37 µM (1 of 3 replicates).
With GTTLNSYGIS, VIISDGRRTFYGDSVK, FRAAGTFDS the result was 54 µM (1 of 3 replicates).
With GFTLNSYTIS, VILSDGRRTFYGDSVK, GRAAGTFRS the result was 57 µM (2 of 3 replicates).
With GFTLNSYGQS, VLTSDGRRTFYGDSVK, GRAAGTFDS the result was 70 µM (2 of 3 replicates).
With GPTLNSYGDS, VIASDGRRTFYGDSVK, GRAAGTFDS the result was 96 µM (1 of 3 replicates).
With GATLNVYGIS, VIHSDGRRTFYGDSVK, GRAAGTFDS the result was 120 µM (1 of 3 replicates).
With GFTLNSYGIS, VIDSDGRRTFYGDSVK, QRAAGTFDS the result was 1.1 mM (2 of 3 replicates).
With GFTLNSYGIS, VICSDGRRMFYGDTVK, GRAAGTFDS the result was no signal (0 of 3 replicates).
With GFTLNSYGIS, VIFSDGRRTFRGDSVK, GRAAGCFDS the result was no signal (0 of 3 replicates).
With GFTLNSYLIS, VICSDGRRTFLGDSVK, GRAAGTFDS the result was no signal (0 of 3 replicates).
With GFTLGSYGIS, VIIADGRRTFYGDSVK, GRAAGTFDS the result was no signal (0 of 3 replicates).
With GFTLNSYDIS, VIGSDGRRTFYGDSVK, GRAAATFDS the result was no signal (0 of 3 replicates).
With GFTLNYYGIS, VIMSDGRLTFYGDSVK, GRAAGTFDS the result was no signal (0 of 3 replicates).
With GFTLNSYGIS, VIDSTLRRTFYGDSVK, GRAAGTFDS the result was no signal (0 of 3 replicates).
With GFTLNSYGIS, VVAMDGRRTFYGDSVK, GRAAGTFDS the result was no signal (0 of 3 replicates).
With GFTLNSYGIS, VIHSDGRRTFYRDSVK, GRAAFTFDS the result was no signal (0 of 3 replicates).
With GFALNSYGIS, VISSDGRRTFYGDSVK, YRAAGTFDS the result was no signal (0 of 3 replicates).
With GFTLNSYGIS, VIKSDGRRTFYGDSVK, GSAAGLFDS the result was no signal (0 of 3 replicates).
With GFTQNSYGIS, VIQSDGRRTFYGDSVK, GRAAGTFDS the result was no signal (0 of 3 replicates).
With GFTLNSYGIS, VICSDGRRTFYGDSVK, GRAAGLRDS the result was no signal (0 of 3 replicates).
With GFTLNSYGIS, VINSSGRRTFYGSSVK, GRAAGTFDS the result was no signal (0 of 3 replicates).
With GFTLNSYGPS, VISSDGRRTCYGDSVK, GRAAGTFDS the result was no signal (0 of 3 replicates).
With GFTLNSYGIS, VIFSDNRRYFYGDSVK, GRAAGTFDS the result was no signal (0 of 3 replicates).
With GFTLNSMGIS, VISSDARRTFYGDSVK, GRAAGTFDS the result was no signal (0 of 3 replicates).
With GFTLNSYGLS, VIRSLGRRTFYGDSVK, GRAAGTFDS the result was no signal (0 of 3 replicates).
With GFTLNSYGIS, VIMSVGRRTAYGDSVK, GRAAGTFDS the result was no signal (0 of 3 replicates).
With GFTLNSYGIS, VISSDGRRTFYGDSVK, VRAAGTFDS the result was no signal (0 of 3 replicates).
With GFTLNSYAIS, VICSDGRRTFYGDSVK, GRAAGTTDS the result was no signal (0 of 3 replicates).
With GFTLNSYGIS, VIPSDGRRTFYHDSVK, GRAAGTFDS the result was no signal (0 of 3 replicates).
With GFTLNSYGIS, LIKSDGRRTFYGDSVK, TRAAGTFDS the result was no signal (0 of 3 replicates).
With GFTLVSYGIN, VIVSDGRRTFYGDSVK, GRAAGTFDS the result was no signal (0 of 3 replicates).

Excerpt, the first 6 entries:

The variant GFTLNNYGIS, VIFSDGRRTFYGDSVK, GQAAGTFDS gave 9.9 nM (3 of 3 replicates).
The variant GSTLNSYGSS, VITSDGRRTFYGDSVK, GRAAGTFDS gave 940 nM (1 of 3 replicates).
The variant GFTLNSYKIS, VIPSDGRRTFYGDSVK, GRHAGTFDS gave 1.9 µM (1 of 3 replicates).
The variant GFTLYSYGIS, VITSDGCRTFYGDSVK, GRAAGTFDS gave 3.0 µM (1 of 3 replicates).
The variant GFTLNSYGIS, PIMSDGRRTFYGDSVK, GRAHGTFDS gave 7.1 µM (2 of 3 replicates).
The variant GFKLNSYGIS, VIWSDGRRTFYIDSVK, GRAAGTFDS gave 7.9 µM (1 of 3 replicates).